# Assay results from PubChem BioAssay AID1117267 (The Scripps Research Institute Molecular Screening Center, 2014).
# Only a part is listed here, and it is no random draw. The source made the active and inactive calls.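 The calls were made as follows: active = activation above the mean of all tested compounds plus 3 SD (cut at about 9.5% in these data); inactive = the rest.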
# Assay: TTR transcription activators in neuroblastoma reporter cells, primary screen, cell-based, luminescence, SH-SY5Y, TTR promoter Gaussia luciferase (AID 1117267);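 also: cells exposed to compounds for one day before reading; 0% = median of all test compound wells on the plate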
# Settings: at 16.7 µM, stronger effect = higher value, 100% = recombinant luciferase protein wells
row,SMILES,activation
1,CC(C)c1ccc(OP(=O)(Nc2ccccn2)Oc2ccccc2F)cc1 (centres undefined),inactive: -0.3%
2,ClCCSc1nnc(-c2cccnc2)o1,inactive: -0.58%
3,O=C(OC1CN2CCC1CC2)c1cccc2[nH]cnc12 (centres undefined),inactive: 7.2%
4,O=[As](O)(c1ccc(O)cc1)c1ccccc1O,inactive: 0.41%
5,Cc1ccc2nc3c(c(C)c2c1)CC(C(Cl)Cl)S3 (centres undefined),inactive: -0.01%
6,COc1ccc(N/C(=N/P(=O)(N2CCOCC2)N2CCOCC2)N2CCOCC2)cc1,inactive: -1.1%
7,O=P1(N(CCCl)CCCl)OCCCN1CCCl (centres undefined),inactive: 1.46%
8,O=P1(N(CCCl)CCCl)Nc2ccccc2N1,inactive: -1.74%
9,CCOC(=O)c1ccc(NC(=O)C(C)(CCl)SC)cc1 (centres undefined),inactive: 2.01%
10,NS(=O)(=O)c1cccc(NC(=O)COC(=O)C(O)(c2ccccc2)c2ccccc2)c1,inactive: 1.28%
11,O=C(/C=C/c1ccccc1)OC1CN2CCC1CC2 (centres undefined),inactive: 0.14%
12,CN(C(=O)Cc1ccc(Cl)c(Cl)c1)C1CCCC[C@@H]1N1CCCC1 (some centres undefined),inactive: 0.01%
13,CC(C)/C=N\N=C(\N)N[N+](=O)[O-],inactive: 0.13%
14,CCOP(=O)(Nc1ccc(C)cn1)OCC,inactive: 0.02%
15,CCOP(=O)(NC(=NC(C)c1ccccc1)NC(C)c1ccccc1)OCC (centres undefined),inactive: -0.89%
16,O=P1(Nc2ccccn2)COc2ccccc2OC1,inactive: 2.49%
17,O=[As](O)(O)c1cccnc1,inactive: -0.08%
18,O=C(OC1CN2CCC1CC2)c1ccc(Cl)cc1 (centres undefined),inactive: 0.83%
19,Cc1cccc(OCC(=O)OC2CN3CCC2CC3)c1 (centres undefined),inactive: 6.01%
20,CN(C)C(=O)c1cc([N+](=O)[O-])cc2c1-c1c(cc([N+](=O)[O-])cc1[N+](=O)[O-])C2=O,inactive: -7.47%
21,O=[N+]([O-])c1ccc2c(c1)nnn2O,inactive: -1.84%
22,O=P(Nc1nccs1)(Oc1ccccc1)Oc1ccccc1,inactive: 0.4%

row,SMILES,activation
1,O=C(O)COc1ccc([As](=O)(O)O)cc1[N+](=O)[O-],inactive: 1.5%
2,O=c1c2cc([N+](=O)[O-])ccc2[nH]c2c([N+](=O)[O-])cc([N+](=O)[O-])cc12,inactive: -6.56%
3,O=P1(N(CCCl)CCCl)OCCC2CCCCN21 (centres undefined),inactive: -1.13%
4,N#C/C(=C\c1ccc(N(CCBr)CCBr)cc1)C(N)=O,inactive: -0.76%
5,CCc1cc(O)c([N+](=O)[O-])c(C)c1[N+](=O)[O-],inactive: 0.25%
6,CC(=O)NC(SC(=S)N(C)C)C(Cl)(Cl)Cl (centres undefined),inactive: -1.45%
7,C[C@H]1OP(=O)(Oc2ccccc2)[C@H](O)[C@H](O)[C@H]1N=[N+]=[N-] (some centres undefined),inactive: 1.53%
8,O=[N+]([O-])c1cccc(NC2=NCC(CBr)S2)c1 (centres undefined),inactive: -1.83%
9,O=P1(N(CCCl)CCCl)OCCCS1 (centres undefined),inactive: 0.25%
10,CN(C)C(=O)OCCc1n(C)cc[n+]1C,inactive: 1.1%
11,CC(C)c1nc(Nc2ccccc2)n(P(=O)(N(C)C)N(C)C)n1,inactive: -0.69%
12,O=[N+]([O-])c1cccc2n[nH]nc12,inactive: 0.42%
13,Nc1cc(N)c2nonc2c1[N+](=O)[O-],inactive: -0.16%
14,NC(=O)c1cc([N+](=O)[O-])cc([N+](=O)[O-])c1N,inactive: 0.31%
15,Cc1ccc(OP(=O)(Nc2nccs2)Oc2ccc(C)cc2)cc1,active: 25.2%
16,CN(C(=O)Cc1ccccc1)C1CC[C@@]2(CCCO2)C[C@@H]1N1CCCC1 (some centres undefined),inactive: 1.57%
17,O=C(O)c1ccccc1[As](=O)(O)O,inactive: 1.39%
18,CN(C)P(=O)(N(C)C)n1c(Nc2ccccc2)nnc1-c1ccccc1,inactive: 1.52%
19,O=P(Nc1nc2ccc(Cl)cc2s1)(c1ccccc1)c1ccccc1,inactive: -4.97%
20,Cc1ccc(NP(=O)(Oc2ccccc2F)Oc2ccccc2F)nc1,inactive: -0.13%
21,CCOP(=O)(Nc1ccccc1)OCC,active: 13.2%
22,CCn1c(=O)n(C2CCN(CC3CCCCCCC3)C[C@H]2CO)c2ccccc21 (some centres undefined),inactive: -0.01%
